Consider one compound from ChEMBL document CHEMBL5042497, “Design, synthesis, and biological evaluation of carbamate derivatives of N-salicyloyl tryptamine as multifunctional agents for the treatment of Alzheimer's disease” (Eur J Med Chem, 2022).

By UniProt entry, the sequences of proteins in these tests, tags left out. Where a name states a change or a piece, a line headed by the entry shows the natural chain unless it says otherwise.
UniProt P22303: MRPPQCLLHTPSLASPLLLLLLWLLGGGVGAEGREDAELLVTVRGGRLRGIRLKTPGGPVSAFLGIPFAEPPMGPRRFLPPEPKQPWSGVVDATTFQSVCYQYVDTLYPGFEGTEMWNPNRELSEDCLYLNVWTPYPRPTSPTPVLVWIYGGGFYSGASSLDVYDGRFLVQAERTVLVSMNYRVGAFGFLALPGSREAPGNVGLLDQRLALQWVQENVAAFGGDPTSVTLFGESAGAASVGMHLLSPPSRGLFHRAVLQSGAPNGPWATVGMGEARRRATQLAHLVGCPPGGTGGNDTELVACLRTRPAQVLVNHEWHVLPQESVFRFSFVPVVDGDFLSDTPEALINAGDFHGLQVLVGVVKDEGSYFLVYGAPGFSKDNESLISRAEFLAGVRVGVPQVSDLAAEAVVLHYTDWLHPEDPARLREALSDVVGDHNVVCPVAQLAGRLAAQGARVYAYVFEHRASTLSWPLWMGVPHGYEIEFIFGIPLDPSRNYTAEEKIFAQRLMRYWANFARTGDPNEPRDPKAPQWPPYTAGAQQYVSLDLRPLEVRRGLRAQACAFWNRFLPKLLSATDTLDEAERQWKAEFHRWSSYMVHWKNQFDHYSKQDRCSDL

The target in the experiment is Acetylcholinesterase (Homo sapiens, UniProt P22303). As to the kind of experiment: Inhibition of AChE (unknown origin).

pIC50: −log10 of the molar value.

The compound `CC(C)c1ccc(NC(=O)Oc2ccc3c(c2)[C@]2(C)CCN(C)[C@@H]2N3C)cc1` [4-ISOPROPYLPHENSERINE] showed a negative logarithm of the IC50 (pIC50) of 7.30.

Broadly, the pIC50 is −log10 of the IC50, conventionally taken in molar units. A higher pIC50 goes with a low IC50.
